Where “and” joins values, the source holds several entries; their conditions need not be identical. Equal entries are not always repeated. The entries are a selection whose mix differs from that of the whole data set. Results filed as inconclusive are left out. More than one record can exist for a structure, and the calls need not agree. Calls of active or inactive are those of the source. Unless noted, calls come from the whole dose curve; as a rule, active = well fitted curve in the direction sought with a large enough effect in the repeat runs; inconclusive = weak or mixed curves; inactive = no such curve, though single readings can be large; an effect the other way counts as inactive or inconclusive.
Tests used:
[1] = qHTS assay to identify small molecule antagonists of the estrogen related receptor signaling pathway with the pleiotropic PPARgamma coactivator (PGC) from Tox21 10K library - cell viability counter screen (AID 1224840; active = well fitted cell-killing curve with a large enough effect in the repeat runs, not every such curve was filed as active; note: nearly all actives have a fitted effect of over 40% in size); conditions: PGC/ERR reporter cells viability, CellTiter-Fluor, 17.5 h
Summary of the method: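 Fluorescence read-out of CellTiter-Fluor viability reagent, added after cells had been exposed to compound in DMSO for 17.5 h at 37 C; 30 min development at 37 C/5% CO2. Cells: PGC/ERR line, 2,000/well.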

Protein sequences, listed by entry. Tags and fused reporters are not part of them.
UniProt P16473, whole entry: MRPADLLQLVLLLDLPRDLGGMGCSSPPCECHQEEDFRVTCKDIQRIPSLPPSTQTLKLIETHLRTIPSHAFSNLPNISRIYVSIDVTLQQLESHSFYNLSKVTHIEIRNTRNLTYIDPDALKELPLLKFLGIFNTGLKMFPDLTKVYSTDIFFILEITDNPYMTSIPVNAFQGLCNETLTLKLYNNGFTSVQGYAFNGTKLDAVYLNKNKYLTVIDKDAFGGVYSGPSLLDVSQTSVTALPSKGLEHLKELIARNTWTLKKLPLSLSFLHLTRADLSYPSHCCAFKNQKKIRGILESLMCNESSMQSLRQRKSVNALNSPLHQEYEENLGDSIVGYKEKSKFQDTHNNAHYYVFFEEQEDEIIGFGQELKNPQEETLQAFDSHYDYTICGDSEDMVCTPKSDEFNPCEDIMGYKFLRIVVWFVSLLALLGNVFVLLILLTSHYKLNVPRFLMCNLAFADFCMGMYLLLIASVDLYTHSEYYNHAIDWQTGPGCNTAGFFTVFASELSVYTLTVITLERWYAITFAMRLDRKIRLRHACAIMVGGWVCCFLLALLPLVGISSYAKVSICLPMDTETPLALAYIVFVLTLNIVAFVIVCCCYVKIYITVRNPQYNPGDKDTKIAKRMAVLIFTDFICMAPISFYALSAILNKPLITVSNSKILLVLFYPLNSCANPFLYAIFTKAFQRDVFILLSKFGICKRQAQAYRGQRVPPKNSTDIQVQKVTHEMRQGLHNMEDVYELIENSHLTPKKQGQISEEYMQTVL
UniProt Q14994, whole entry: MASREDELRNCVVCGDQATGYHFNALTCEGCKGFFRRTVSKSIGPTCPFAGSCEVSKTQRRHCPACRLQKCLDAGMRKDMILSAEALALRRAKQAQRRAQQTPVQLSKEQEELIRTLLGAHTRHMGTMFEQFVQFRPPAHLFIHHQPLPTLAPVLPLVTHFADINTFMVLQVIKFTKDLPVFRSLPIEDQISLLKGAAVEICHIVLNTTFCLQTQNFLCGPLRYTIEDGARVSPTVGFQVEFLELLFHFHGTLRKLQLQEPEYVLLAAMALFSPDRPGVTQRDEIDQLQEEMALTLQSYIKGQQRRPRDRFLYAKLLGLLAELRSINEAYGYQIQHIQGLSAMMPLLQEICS

[2] = qHTS assay to identify small molecule antagonists of the estrogen related receptor signaling pathway with the pleiotropic PPARgamma coactivator (PGC) from Tox21 10K library (AID 1224841; call rule not given here; note: actives are mostly falling curves and most rising ones were filed inactive; nearly all actives have a fitted effect of over 50% in size; note: potency is the fitted concentration of half-maximal effect); conditions: PGC/ERR reporter cell line, ONE-Glo luciferase, 18 h; series mostly up to 92.4 µM
[3] = target: Thyrotropin receptor (Homo sapiens) (UniProt P16473); assay: qHTS assay to identify small molecule agonists of the thyroid stimulating hormone receptor (TSHR) signaling pathway (AID 1224843; calls by dose curve; note: nearly all actives have a fitted effect of over 45% in size); conditions: TSHR-HEK293 cells, cAMP HTRF, agonist mode, 30 min
[4] = qHTS assay to identify small molecule agonists of the hypoxia (HIF-1) signaling pathway - cell viability counter screen (AID 1224844; calls by dose curve; note: nearly all actives have a fitted effect of over 50% in size); conditions: HRE-bla ME-180 viability, CellTiter-Glo luminescence, 17 h; at 76.8 µM (top of the series) unless noted
Summary of the method: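 CellTiter-Glo luminescence read-out, 30 min RT, taken in the same wells as the beta-lactamase HRE reporter assay; HRE-bla ME-180 cells, 0.5% dialyzed FBS, 17 hr compound treatment at 37C, 5% CO2.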

[5] = qHTS assay to identify small molecule agonists of H2AX (AID 1224845; active = well fitted activation curve with a large enough effect in the signal ratio in the repeat runs, not every such curve was filed as active; the % refers to the signal ratio); conditions: CHO-K1 phospho-H2AX Ser139 HTRF, 3 h
Summary of the method: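 Wild-type CHO-K1 cells, plated overnight, exposed 3hr at 37C to 15 concentrations (0.76% DMSO final). Lysed, then HTRF anti-pH2AX (S139) cryptate and anti-H2AX-d2 antibodies, 24 hr room temperature; 665/620 nm emission read.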

[6] = qHTS assay to identify small molecule antagonists of the estrogen related receptor (ERR) signaling pathway from Tox21 library (AID 1224848); conditions: ERR reporter cell line, luciferase antagonist mode, 18 h; series mostly up to 92.4 µM; note: nearly all actives have a fitted effect of over 50% in size; note: potency is the fitted concentration of half-maximal effect
Summary of the method: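 Compounds dissolved in DMSO are pin-transferred onto ERR reporter cells (2,000 per well) that have settled for 6 h at 37 C. Plates then incubate 18 h at 37 C before ONE-Glo luciferase reagent and a luminescence read 30 min later.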

[7] = qHTS assay to identify small molecule agonists of the estrogen related receptor (ERR) signaling pathway from Tox21 library (AID 1224849; calls by dose curve; note: nearly all actives have a fitted effect of over 15% in size); conditions: ERR reporter cell line, ONE-Glo luciferase, 18 h
Summary of the method: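 Luminescence readout (ONE-Glo, 30 min RT) after 18 h compound exposure at 37 C of NTP-supplied ERR reporter cells; cells were plated 6 h before compound addition by pin tool.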

[8] = qHTS RealTime-Glo MT Cell Viability Assay in HEK293 cells - 32 hour (AID 1224868); conditions: RealTime-Glo luminescence; note: top concentration of the series differs between compounds; nearly all actives have a fitted effect of over 50% in size
Summary of the method: (§1)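 Homogeneous bioluminescent viability format in HEK293 cells (600 cells/well). Following 5 h at 37 C/5% CO2, 23 nL compound was pintooled; the signal was measured repeatedly during 40 h incubation.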

[9] = A CellTox Green Cytotoxicity Assay to monitor cytotoxicity in HEK293 cells - 0 hour (AID 1224869); conditions: CellTox Green fluorescence; series mostly up to 76.8 µM; note: nearly all actives have a fitted effect of over 50% in size; note: potency is the fitted concentration of half-maximal effect
Summary of the method: (§2)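 Read-out: fluorescence of a cell-impermeant cyanine dye staining DNA of dead cells, proportional to cytotoxicity. HEK293, 600 cells/well with reagent, compound (23 nL DMSO) added after 5 h; reads at 0, 8, 16, 24, 32, 40 h.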

[10] = qHTS RealTime-Glo MT Cell Viability Assay in HepG2 cells - 40 hour (AID 1224870); conditions: RealTime-Glo luminescence; at 76.8 µM (top of the series) unless noted; note: nearly all actives have a fitted effect of over 50% in size
Summary of the method: (§3)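 HepG2 cells (600/well) mixed with RealTime-Glo MT reagent, settled 5 h at 37 C/5% CO2 before compound addition. Nonlytic NanoLuc luminescence from viable-cell prosubstrate reduction read repeatedly during 40 h treatment at 37 C.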

[11] = qHTS RealTime-Glo MT Cell Viability Assay in HEK293 cells - 16 hour (AID 1224872); conditions: RealTime-Glo luminescence; at 76.8 µM (top of the series) unless noted
Summary of the method: as §1

[12] = qHTS RealTime-Glo MT Cell Viability Assay in HepG2 cells - 8 hour (AID 1224873); conditions: RealTime-Glo luminescence; at 76.8 µM (top of the series) unless noted; note: nearly all actives have a fitted effect of over 55% in size
Summary of the method: as §3

[13] = A CellTox Green Cytotoxicity Assay to monitor cytotoxicity in HepG2 cells - 16 hour (AID 1224876); conditions: CellTox Green fluorescence; series mostly up to 76.8 µM; note: nearly all actives have a fitted effect of over 45% in size; note: potency is the fitted concentration of half-maximal effect
Summary of the method: (§4)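 HepG2, 600 cells/well premixed w/ CellTox Green; 5 h settle, 37 C/5% CO2; pintool cpd add (DMSO); 37 C, 40 h; fluorescence read at 0, 8, 16, 24, 32, 40 h.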

[14] = qHTS RealTime-Glo MT Cell Viability Assay in HepG2 cells - 32 hour (AID 1224877); conditions: RealTime-Glo luminescence; note: nearly all actives have a fitted effect of over 55% in size
Summary of the method: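 Cell number in HepG2 cultures estimated from NanoLuc luminescence generated by metabolic reduction of a prosubstrate by living cells. The homogeneous, nonlytic format allowed repeated reads at 0, 8, 16, 24, 32 and 40 h of compound exposure.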

[15] = A CellTox Green Cytotoxicity Assay to monitor cytotoxicity in HepG2 cells - 24 hour (AID 1224878); conditions: CellTox Green fluorescence; series mostly up to 76.8 µM; note: nearly all actives have a fitted effect of over 45% in size; note: potency is the fitted concentration of half-maximal effect
Summary of the method: as §4

[16] = qHTS RealTime-Glo MT Cell Viability Assay in HEK293 cells - 0 hour (AID 1224880); conditions: RealTime-Glo luminescence; at 76.8 µM (top of the series) unless noted; note: top concentration of the series differs between compounds; nearly all actives have a fitted effect of over 45% in size
Summary of the method: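 Luminescence readout at each listed time point; HEK293, 600 cells/well, RealTime-Glo MT reagent added with cells; compounds pinned (23 nL in DMSO) after 5 h at 37 C; continuous culture at 37 C.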

[17] = A CellTox Green Cytotoxicity Assay to monitor cytotoxicity in HEK293 cells - 32 hour (AID 1224881); conditions: CellTox Green fluorescence; series mostly up to 76.8 µM; note: nearly all actives have a fitted effect of over 40% in size; note: potency is the fitted concentration of half-maximal effect
Summary of the method: as §2

[18] = target: Nuclear receptor subfamily 1 group I member 3 (Homo sapiens) (UniProt Q14994); assay: qHTS assay to identify small molecule agonists of the constitutive androstane receptor (CAR) signaling pathway (AID 1224839); conditions: HepG2 hCAR CYP2B6-luciferase, agonist mode, 24 h; series mostly up to 92.4 µM;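 note: HepG2 cells stably carrying human CAR and a CYP2B6 luciferase reporter; nearly all actives have a fitted effect of over 15% in size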
[19] = A CellTox Green Cytotoxicity Assay to monitor cytotoxicity in HepG2 cells - 40 hour (AID 1224879); conditions: CellTox Green fluorescence; series mostly up to 76.8 µM; note: nearly all actives have a fitted effect of over 40% in size; note: potency is the fitted concentration of half-maximal effect
Summary of the method: as §4

[20] = qHTS assay to identify small molecule agonists of the hypoxia (HIF-1) signaling pathway (AID 1224846; active = well fitted activation curve with a large enough effect in the signal ratio in the repeat runs, not every such curve was filed as active; the % refers to the signal ratio); conditions: HRE-bla ME-180 cells, beta-lactamase ratio, 17 h; at 76.8 µM (top of the series)
Summary of the method: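 Beta-lactamase FRET read-out (CCF4-AM substrate) from ME-180 cells carrying an HRE-driven bla reporter, after 17 hrs compound exposure at 37C/5% CO2. Cells were seeded at 2,000 per well in 0.5% dialyzed FBS medium and preincubated 5 hrs.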
% is set by controls: 0 for no effect and ±100 for the full control effect.

CCOP(=O)(CC)Oc1ccc([N+](=O)[O-])cc1 (centres undefined)
inactive: viability change, negative = cytotoxic ([1]; at 42.5 µM (top of the series)) -14.8% | activation ([3]; at 42.5 µM (top of the series)) -3.52% | activity change, negative = cytotoxicity [4] 1.01% [at 35.3 µM] | activation (H2AX phosphorylation) ([5]; at 70.9 µM (top of the series)) 0.0878% | activity change, positive = activation ([7]; at 42.5 µM (top of the series)) -50.4% | activity change, negative = cytotoxic ([8]; at 35.3 µM (top of the series)) -6.46% | Potency [9] | activity change, negative = cytotoxic [10] -3.01% [at 35.3 µM] | activity change, negative = cytotoxicity [11] -0.936% [at 35.3 µM] | viability change, negative = cytotoxic [12] -5.14% [at 35.3 µM] | Potency [13] | activity change, negative = cytotoxic ([14]; at 35.3 µM (top of the series)) -3.15% | Potency [15] | activity change, negative = cytotoxicity [16] 4.14% [at 35.3 µM] | Potency [17]
active: Potency [2] 3.76 µM | Potency [6] 7.5 µM

C/C1=C2N=C(/C=C3N=C(/C(C)=C4\[N-][C@@](C)([C@@H]5N=C1[C@](C)(CCC(=O)NC[C@@H](C)OP(=O)([O-])O[C@H]1[C@@H](O)[C@@H](n6cnc7cc(C)c(C)cc76)O[C@@H]1CO)[C@H]5CC(N)=O)[C@@](C)(CC(N)=O)[C@@H]4CCC(N)=O)[C@@](C)(CC(N)=O)[C@@H]\3CCC(N)=O)C(C)(C)[C@@H]/2CCC(N)=O.[C-]#N.[Co+3]
inactive: Potency [18] | viability change, negative = cytotoxic ([1]; at 42.5 µM (top of the series)) -15.8% | Potency [2] | activity change, negative = cytotoxicity [4] -1.01% [at 35.3 µM] | Potency [6] | activity change, positive = activation ([7]; at 42.5 µM (top of the series)) 0.0957% | activity change, negative = cytotoxic ([8]; at 35.3 µM (top of the series)) -7.76% | Potency [9] | activity change, negative = cytotoxic [10] -3.12% [at 35.3 µM] | activity change, negative = cytotoxicity [11] -11.5% [at 35.3 µM] | viability change, negative = cytotoxic [12] -2.7% [at 35.3 µM] | Potency [13] | activity change, negative = cytotoxic ([14]; at 35.3 µM (top of the series)) -3.7% | Potency [15] | Potency [19] | activity change, negative = cytotoxicity [16] -12.3% [at 35.3 µM] | Potency [17]

O=[N+]([O-])[O-].[NH4+]
inactive and 27.5 µM (active): Potency [9] | Potency [15]
inactive: viability change, negative = cytotoxic ([1]; at 92.4 µM (top of the series)) 3.37% and 0.685% | activity change, negative = cytotoxicity [4] 6.5% and -4.56% | activation (H2AX phosphorylation) ([5]; at 154 µM (top of the series)) -0.339% and -0.181% | activation [20] -0.75% and -1.8% | activity change, negative = cytotoxic ([8]; at 76.8 µM (top of the series)) 2.73% and 0.791% | activity change, negative = cytotoxic [10] 3.85% and 0.401% | activity change, negative = cytotoxicity [11] 5.03% and 9.95% | viability change, negative = cytotoxic [12] 1.49% and 2.07% | activity change, negative = cytotoxicity [16] -3.92% and 3.36%
inactive and 38.9 µM (active): Potency [13] | Potency [19] | Potency [17]

CN(C)CCCl
inactive: Potency [18] | viability change, negative = cytotoxic ([1]; at 92.4 µM (top of the series)) 1.23% | Potency [2] | activation ([3]; at 92.4 µM (top of the series)) -0.368% | activity change, negative = cytotoxicity [4] -21.6% | activation (H2AX phosphorylation) ([5]; at 154 µM (top of the series)) 4.58% | activation [20] -0.564% | Potency [6] | activity change, positive = activation ([7]; at 92.4 µM (top of the series)) 1.07% | activity change, negative = cytotoxic ([8]; at 76.8 µM (top of the series)) 2.47% | Potency [9] | activity change, negative = cytotoxic [10] -1.58% | activity change, negative = cytotoxicity [11] -0.141% | viability change, negative = cytotoxic [12] 1.12% | Potency [13] | activity change, negative = cytotoxic ([14]; at 76.8 µM (top of the series)) 0.22% | Potency [15] | Potency [19] | activity change, negative = cytotoxicity [16] -3.94% | Potency [17]

CC(C)OP(C)(=O)OC(C)C
inactive: viability change, negative = cytotoxic ([1]; at 92.4 µM (top of the series)) -1.3% | activation ([3]; at 92.4 µM (top of the series)) -0.569% and -2.85% | activity change, negative = cytotoxicity [4] 8.06% and 0.459% | activation (H2AX phosphorylation) ([5]; at 154 µM (top of the series)) -1.19% and -0.0023% | activation [20] -0.56% and -0.818% | activity change, positive = activation ([7]; at 92.4 µM (top of the series)) -54.3% and 7.28% | activity change, negative = cytotoxic ([8]; at 76.8 µM (top of the series)) 16.9% | Potency [9] | activity change, negative = cytotoxic [10] 0.591% and 1.03% | activity change, negative = cytotoxicity [11] -19.2% and 17% | viability change, negative = cytotoxic [12] -3.57% and 1.64% | Potency [13] | Potency [15] | Potency [19] | activity change, negative = cytotoxicity [16] -4.09% and 11.3% | Potency [17]
24.3 µM (active) and inactive: Potency [6]

N=C(N)N[N+](=O)[O-]
inactive: Potency [18] | Potency [2] | activation ([3]; at 92.4 µM (top of the series)) 0.85% | activity change, negative = cytotoxicity [4] 4.43% | activation (H2AX phosphorylation) ([5]; at 154 µM (top of the series)) 6.2% | activation [20] 0.72% | Potency [6] | activity change, positive = activation ([7]; at 92.4 µM (top of the series)) -3.9% | activity change, negative = cytotoxic ([8]; at 76.8 µM (top of the series)) -5.06% | Potency [9] | activity change, negative = cytotoxic [10] 2.75% | activity change, negative = cytotoxicity [11] -9.89% | viability change, negative = cytotoxic [12] -0.0372% | Potency [13] | activity change, negative = cytotoxic ([14]; at 76.8 µM (top of the series)) 1.05% | Potency [15] | Potency [19] | activity change, negative = cytotoxicity [16] -12.2% | Potency [17]
